The chains behind the UniProt entries cited, without tags or fusion partners.
UniProt O14684, whole entry: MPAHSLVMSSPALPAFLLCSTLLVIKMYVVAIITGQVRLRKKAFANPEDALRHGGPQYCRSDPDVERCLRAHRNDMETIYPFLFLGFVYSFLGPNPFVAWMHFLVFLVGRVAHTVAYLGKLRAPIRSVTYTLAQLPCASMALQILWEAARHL

According to patent publication US8951999B2, “Compounds” (Orexo AB, priority 2009, dated 2015):

Target: recombinant human mPGES-1 (Homo sapiens, UniProt O14684)
Assay: Assay B: mPGES-1 enzyme assay (modified)
Details: read-out: mPGES-1 inhibitory effect IC50; biological assay B (all other compounds); PGH2 final conc. 2 μM, HTRF
Protocol: Assay B: mPGES-1 Enzyme Assay (Modified)
The aim of this assay is to determine the affinity of a test compound for the mPGES-1 enzyme.
47 μl of recombinant human mPGES-1 (˜0.5 μg protein/well) containing microsomal suspension in a buffer containing GSH, (2.5 mmol/L L-Glutathione reduced, dissolved in 0.1 mol/L Phosphat Buffer pH 7.4) is dispensed in a 384-well plate and thereafter 1 μl of the test compound(s) is/are added and incubated for 25 minutes at room temperature. The enzyme reaction is started by the addition of 2 ul PGH2 (final conc. 2 μM) dissolved in water-free Diglyme. […] In order to quantify the amount of PGE2 that has been formed, a homogenous time resolved fluorescent (HTRF) detecting of PGE2 has been performed using a commercially available kit from Cisbio according to the manufactures recommendation. […] After an incubation period of the plates over night, the fluorescence is measured by the use of an appropriate microplate reader.
The fluorescence of Europium cryptate (maxex=307 nm, maxem=620 nm) and d2-PGE2 (maxex=620 nm, maxem=665 nm) are measured.
The extent of the specific HTRF is measured as a ratio of the emission intensity at 665 nm vs. that at 620 nm at an excitation pulse of 320 nm. The quantification plate contains also wells with different concentrations of PGE2 as calibration curve for the calculation of the PGE2 concentrations from the HTRF ratio values. […]

CC(C)(C)C(=O)NCc1ccc(Cl)c(C(=O)Nc2ccc(N3CCC(C(F)(F)F)CC3)c(C(=O)Nc3ccc(Br)cc3)c2)c1Cl
IC50: 2 nM
